## Ab-95 light chain CDR variants: yeast mating affinities

The measurements come from Engelhart et al. 2022 (doi:10.1038/s41597-022-01779-4) through the FLAb antibody collection.

Antigen: PDVDLGDISGINAS, a 14-residue peptide of the SARS-CoV-2 spike HR2 region.

Parent: Ab-95, a human scFv built as VH, the linker GGGGSGGGGSGGGGS, VL. Only the CDRs of the light chain vary.
VH: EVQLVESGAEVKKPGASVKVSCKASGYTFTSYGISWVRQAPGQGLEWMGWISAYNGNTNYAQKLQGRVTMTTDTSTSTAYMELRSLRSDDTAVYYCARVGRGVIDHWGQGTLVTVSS
VL: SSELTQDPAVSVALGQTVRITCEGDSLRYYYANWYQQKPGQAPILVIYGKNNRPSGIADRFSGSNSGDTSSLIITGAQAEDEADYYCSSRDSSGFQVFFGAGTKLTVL

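Library AAYL52 holds single substitutions and randomly drawn double and triple substitutions in the CDRs. The assay is AlphaSeq: two haploid yeast populations carry antibody and antigen on their surface. Binding brings cells together so that they mate, and sequencing counts the barcode pairs among the diploids. Each replicate has its own calibration line, from reference interactions of the BCL2 family. There are three technical replicates.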

Variants are written as CDR1, CDR2 and CDR3 of the light chain (limits as in the source). Parent: EGDSLRYYYAN, GKNNRPS, SSRDSSGFQVF.
All variants listed here change F95 of the VL, counted from its first residue.
Values are apparent Kd, the geometric mean of the replicates that gave a signal; lower means stronger binding.
"nd" marks a missing value. The strain was present, yet no cells mated with the target were sequenced in any replicate, which points to weak or no binding.
Entries are sorted by rising average, undetected variants last.
Nonspecific signal, from three strains lacking the peptide, appeared in 28% of pairings of library AAYL52, centred on 8.2 µM (5% of these signals below 800 nM); values are not corrected for it.
Parent in this assay: reference entry 200 nM, copy in this library 180 nM.

For EGDSLRYRYAN / GGNNRPS / SSRDSSGSQVF, the assay gave 16 nM (3 of 3 replicates).
For EGDSLRTIYAN / GKNNRPS / SSRDSSGYQVF, the assay gave 49 nM (3 of 3 replicates).
For EGDSLRYYYAN / GESNRPS / SSRDSSGYQVF, the assay gave 59 nM (3 of 3 replicates).
For EGDSLGYYYAN / GKNNRPS / SSRDSSGGQVF, the assay gave 160 nM (3 of 3 replicates).
For EGDSLRYYFAN / GKNNRES / SSRDSSGYQVF, the assay gave 200 nM (3 of 3 replicates).
For EGDSLRYYYAN / GKNNRPS / SSRDSSGLQVF, the assay gave 210 nM (3 of 3 replicates).
For FGDSLRYYYAN / GKNNRPI / SSRDSSGWQVF, the assay gave 280 nM (1 of 3 replicates).
For EGDMLRYWYAN / GKNNRPS / SSRDSSGSQVF, the assay gave 280 nM (3 of 3 replicates).
For EGDSLRYYYAN / GKNNRPS / SSRDSSGDMVM, the assay gave 290 nM (3 of 3 replicates).
For EGDSLRYYHAN / GLNNRPS / SSRDSSGDQVF, the assay gave 320 nM (3 of 3 replicates).
For EGDSLVYYYAN / GKNNRPS / SSRDGSGYQVF, the assay gave 380 nM (3 of 3 replicates).
For EGTSLRYYCAN / GKNNRPS / SSRDSSGQQVF, the assay gave 440 nM (3 of 3 replicates).
For EGDSMRYYYAN / GKNNRPS / SSRDSAGMQVF, the assay gave 520 nM (3 of 3 replicates).
For EGDSLRAYYAN / GKNNRPS / SSRDSPGLQVF, the assay gave 540 nM (3 of 3 replicates).
For EGDSLRYTYAN / GKNNRCS / SSRDSSGWQVF, the assay gave 650 nM (3 of 3 replicates).
For EGDSLRMYYAN / GKNNRPS / SSWDSSGIQVF, the assay gave 680 nM (3 of 3 replicates).
For EGDSLRYYYAN / GQNNRPS / SSRDSYGEQVF, the assay gave 710 nM (3 of 3 replicates).
For EGDSLRDYYAN / GKNNRPS / SSRDSSGTQVA, the assay gave 770 nM (3 of 3 replicates).
For EGDSLRYYYAN / GKNNRPS / SSRDRHGLQVF, the assay gave 1.0 µM (3 of 3 replicates).
For EGDSLRYYYAN / GKHNRPS / SSRDSSPWQVF, the assay gave 1.1 µM (3 of 3 replicates).
For EGDSLRYYYAN / QKNNRPS / STRDSSGKQVF, the assay gave 1.2 µM (1 of 3 replicates).
For YGDSLLYYYAN / GKNNRPS / SSRDSSGAQVF, the assay gave 1.3 µM (3 of 3 replicates).
For EGDSLRYYYAD / GKNNRPS / SFRDSSGNQVF, the assay gave 1.5 µM (1 of 3 replicates).
For EGDSLREYYFN / GKNNRPS / SSRDSSGWQVF, the assay gave 1.5 µM (3 of 3 replicates).
For EGDSMRYLYAN / GKNNRPS / SSRDSSGWQVF, the assay gave 2.0 µM (3 of 3 replicates).
For EGDSLRYYYAN / GKNNRPW / SSRDSRGMQVF, the assay gave 2.1 µM (3 of 3 replicates).
For EIDSLRYYYAN / GKNWRPS / SSRDSSGGQVF, the assay gave 2.6 µM (1 of 3 replicates).
For EGDSLRYYYAN / GKNMRPS / SSEDSSGRQVF, the assay gave 3.9 µM (3 of 3 replicates).
For EGDSLRYYYAN / GKNNRPS / SSCDSSGHQVS, the assay gave 5.1 µM (1 of 3 replicates).
For EGDSLWYYYAN / GKNNRPS / ASRDSSGSQVF, the assay gave 6.0 µM (2 of 3 replicates).
For EGDSLRYYYAN / GKVNRPS / SSRDSWGPQVF, the assay gave 6.2 µM (1 of 3 replicates).
For EGDSLRYYYAN / GKNRRPS / SSRDSSGPQVF, the assay gave 8.9 µM (2 of 3 replicates).
For ELDSLRYYYAN / GKNNRPR / SSRDSSGAQVF, the assay gave 9.4 µM (2 of 3 replicates).
For EGDSLRYYYQN / GKNNRPS / SSRGSSGTQVF, the assay gave 9.6 µM (2 of 3 replicates).
For EGDSLRYYYAN / GKNNRPS / SSRDSSGNQSF, the assay gave 12 µM (1 of 3 replicates).
For EDDSLWYYYAN / GKNNRPS / SSRDSSGSQVF, the assay gave 16 µM (1 of 3 replicates).
For EGDSLRYYYAN / IKNNRPS / SSRDSSGVQVF, the assay gave 17 µM (1 of 3 replicates).
For ERDSLRYYYAN / GKNNRPS / SSRDSSILQVF, the assay gave 18 µM (3 of 3 replicates).
For EGDSLRYYYAN / GKWNRPS / FSRDSSGEQVF, the assay gave 26 µM (1 of 3 replicates).
For EGDSLRYYYAN / GKNNRPS / SSRDSSGDMVF, the assay gave 32 µM (1 of 3 replicates).
For EGDSLTYYYAN / GKNNRPS / SSRWSSGPQVF, the assay gave 61 µM (2 of 3 replicates).
For EGDSLRNYYAN / RKNNRPS / SSRDSSGQQVF, the assay gave nd (0 of 3 replicates).

For reference, 7 entries of the list once more:

CDR-L1,CDR-L2,CDR-L3,Kd,replicates with signal
EGDSLRYYYAN,GKNNRPS,SSRDRHGLQVF,1.0 µM,3 of 3
EIDSLRYYYAN,GKNWRPS,SSRDSSGGQVF,2.6 µM,1 of 3
EGDSLRYYYAN,GKWNRPS,FSRDSSGEQVF,26 µM,1 of 3
EGDSLRAYYAN,GKNNRPS,SSRDSPGLQVF,540 nM,3 of 3
EGDSLRYYYAN,GKNNRPS,SSRDSSGNQSF,12 µM,1 of 3
EGDMLRYWYAN,GKNNRPS,SSRDSSGSQVF,280 nM,3 of 3
EGDSLRYYYAN,GQNNRPS,SSRDSYGEQVF,710 nM,3 of 3